{
  "sequences": {"note": "Amino acid sequences for entries named in this document (tags omitted). A change or cut given only in a name is not applied to a line headed by its entry.", "UniProt Q16186": "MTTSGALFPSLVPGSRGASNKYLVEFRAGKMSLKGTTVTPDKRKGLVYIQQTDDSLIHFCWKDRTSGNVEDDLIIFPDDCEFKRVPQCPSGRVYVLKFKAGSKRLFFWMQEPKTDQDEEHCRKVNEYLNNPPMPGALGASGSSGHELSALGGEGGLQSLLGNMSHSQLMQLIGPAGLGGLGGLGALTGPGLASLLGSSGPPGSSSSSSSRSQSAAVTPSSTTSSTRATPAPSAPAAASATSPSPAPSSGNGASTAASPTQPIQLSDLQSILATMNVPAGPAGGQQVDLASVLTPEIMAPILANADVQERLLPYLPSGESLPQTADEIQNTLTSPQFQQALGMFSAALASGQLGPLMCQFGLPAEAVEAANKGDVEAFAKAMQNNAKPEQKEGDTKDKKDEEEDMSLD"},
  "source": "patent US12410141B2",
  "about": "“Anti-cancer spirocyclic-guanidine compounds and uses thereof” (The Johns Hopkins University, priority 2020, dated 2025)",
  "molecular_target": "T1, 42 kDa cellular protein previously identified as RPN13 (Homo sapiens, UniProt Q16186)",
  "T1 construct": "endogenous in cells; host or cells: ES2 cell lysate (clarified, in MPER buffer)",
  "assay": "Labeling of ES2 cell lysate with biotinylated probes",
  "type": "binding",
  "conditions": "45 min at 4° C., streptavidin-HRP",
  "experimental": "ES2 cell lysates were incubated with 20 μM RA190B for 45 min at 4° C., and then separated by SDS-PAGE, transferred to a PVDF membrane.\nThe lysates were then separated by SDS-PAGE, transferred to a PVDF membrane.",
  "data": [
    {"smiles": "O=C(O)CCCC[C@@H]1SC[C@@H]2NC(=O)N[C@@H]21", "note": "[Up284B]", "values": [
      {"measurement": "binding of biotinylated probe to the 42 kDa cellular protein", "result": "bound to the same size 42 kDa cellular protein more avidly than RA190B"}
    ]}
  ]
}
